Among the data in PubChem BioAssay AID651654 (Broad Institute, 2012) are lysis activity values, retold here.

This is a selection; strong and weak results do not stand in their true shares. The source made the active and inactive calls.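 The calls were made as follows: active = mean lysis activity across replicates of at least 80%, whatever share of replicates individually reach that level; inactive = mean lysis activity below 80%.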

The nature of the assay: Cryptococcus neoformans cell lysis inducers, primary screen, AK release luminescence, single concentration (AID 651654). The settings on record: C. neoformans lysis, adenylate kinase release luminescence, 4 h; at 15 µM; hits give high values; normalised: neutral wells 0, clomiphene wells 100. The essentials: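 Test system: log-phase Cryptococcus neoformans yeast cells; Quantity: yeast cell density of 5 × 10^6 cells/mL; Buffer or medium: YPD; Doses: single compound concentration per well; Timing: 4 h at 37 °C static, read 1 h later; Measured by: AK luminescence; Read-out basis: lysis from increased AK signal; Control set: Clomiphene as positive control.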
As to `CN(C)C(=O)Oc1noc2ccccc12`, the lysis activity was inactive: 3.05%. As to `CC(NC(=O)COC(=O)C(O)(c1ccccc1)c1ccccc1)c1ccccc1` (stereo unspecified), the lysis activity is inactive: -0.032%. As for `CCNC(=S)/N=C(\N)N[N+](=O)[O-]`, the lysis activity was inactive: -0.599%. For `Cc1ccc(NP(=O)(Oc2cccc(C)c2)Oc2cccc(C)c2)nc1`, the lysis activity is inactive: -0.983%. With `O=P1(N(CCCl)CCCl)OCCC2CCCCN21` (stereo unspecified), the lysis activity is inactive: -1.85%. Take `CC(=O)c1ccc(N2CC2c2ccncc2)cc1` (stereo unspecified): the lysis activity was inactive: 1.17%. In the case of `C[C@@H]1C=CCP(=O)(Oc2ccccc2)O1` (stereo partly specified), the lysis activity was inactive: 2.97%. Turning to `C[C@H]1OP(=O)(Oc2ccccc2)C[C@@H]2O[C@@H]21` (stereo partly specified), the lysis activity is inactive: -4.36%. As for `Cc1ccccc1CN(C)C(=O)COC(=O)C(O)(c1ccccc1)c1ccccc1`, the figure is inactive: -0.717%.

On to `CC(=O)Nc1ccc(Oc2c([N+](=O)[O-])cc([N+](=O)[O-])cc2[N+](=O)[O-])cc1`, for which the lysis activity is inactive: 0.327%. As for `CC(=O)Nc1ccc([As](=O)(O)O)c(O)c1`, the figure is inactive: -0.253%.

On to `O=P1(Nc2nc3ccc(Cl)cc3s2)COc2ccccc2O1` (stereo unspecified), for which the lysis activity was inactive: 0.167%. As to `CCc1cc(O)c([N+](=O)[O-])c(C)c1[N+](=O)[O-]`, the lysis activity is inactive: -0.132%. Regarding `O=P(Nc1nccs1)(c1ccccc1)c1ccccc1`, the lysis activity was inactive: 2.75%.

`c1nnnn1CCn1cnnn1`: the lysis activity is inactive: 1.43%. Turning to `O=[N+]([O-])c1ccc(O)c(/C=N/Nc2ccc([N+](=O)[O-])cc2[N+](=O)[O-])c1`, the lysis activity was inactive: -1.88%. As for `CC(=O)NC(SC(=S)N(C)C)C(Cl)(Cl)Cl` (stereo unspecified), the figure is inactive: 4.46%.

Take `O=[As](O)(c1ccccc1)c1ccc(O)cc1`: the lysis activity is inactive: -1.09%.

With `Nc1ccc([As](=O)(O)c2ccc([N+](=O)[O-])cc2)cc1`, the lysis activity was inactive: -3.13%. For the compound `O=C(OC1CN2CCC1CC2)c1cccc(Cl)c1` (stereo unspecified), the lysis activity is inactive: -2.42%.

For `Nc1ccc(CCCCOc2ccccc2)cc1`, the lysis activity was inactive: 0.433%. Regarding `COc1ccc(N)c([N+](=O)[O-])c1[N+](=O)[O-]`, the lysis activity was inactive: -0.332%.

As for `O=P(Nc1ccccn1)(c1ccc(Br)cc1)c1ccc(Br)cc1`, the lysis activity was inactive: -6.87%.

On to `CN(C)C1(CNC(=O)c2ccc(Cl)c(S(N)(=O)=O)c2)CCCCC1`, for which the lysis activity was inactive: 1.28%. As for `C[C@H]1OP(=O)(Oc2ccccc2)[C@H](O)[C@H](O)[C@H]1N=[N+]=[N-]` (stereo partly specified), the figure is inactive: 3.53%. On to `O=P(Nc1nc2ccccc2s1)(c1ccccc1)c1ccccc1`, for which the lysis activity was inactive: -4.91%.
